Test results from ChEMBL document CHEMBL3822383, “Coumarin sulfonamides derivatives as potent and selective COX-2 inhibitors with efficacy in suppressing cancer proliferation and metastasis” (Bioorg Med Chem Lett, 2016).

Species on record: Homo sapiens
Experiment: Selectivity ratio of IC50 for human COX1 to IC50 for human COX2

Structure (SMILES) | Ratio IC50
NS(=O)(=O)c1ccc(-n2nc(C(=O)N/N=C/c3c(Cl)c4ccccc4oc3=O)cc2-c2ccc(Cl)c(Cl)c2)cc1 | 323
NS(=O)(=O)c1ccc(-n2nc(C(=O)N/N=C/c3c(Cl)c4ccccc4oc3=O)cc2-c2ccccc2F)cc1 | > 212
COc1cc(-c2cc(C(=O)N/N=C/c3c(Cl)c4ccccc4oc3=O)nn2-c2ccc(S(N)(=O)=O)cc2)cc(OC)c1OC | 2.7
NS(=O)(=O)c1ccc(-n2nc(C(=O)N/N=C/c3c(Cl)c4ccccc4oc3=O)cc2-c2ccccc2Cl)cc1 | 81.3
COc1cccc(-c2cc(C(=O)N/N=C/c3c(Cl)c4ccccc4oc3=O)nn2-c2ccc(S(N)(=O)=O)cc2)c1 | > 16
NS(=O)(=O)c1ccc(-n2nc(C(=O)N/N=C/c3c(Cl)c4ccccc4oc3=O)cc2-c2cccc(Cl)c2)cc1 | > 185
COc1ccc(-c2cc(C(=O)N/N=C/c3c(Cl)c4ccccc4oc3=O)nn2-c2ccc(S(N)(=O)=O)cc2)cc1OC | 6.6

Further lines, results first:

Ratio IC50 | Structure (SMILES)
5.5 | Cc1ccc(-c2cc(C(=O)N/N=C/c3c(Cl)c4ccccc4oc3=O)nn2-c2ccc(S(N)(=O)=O)cc2)c(C)c1
12.9 | Cc1ccc(-c2cc(C(=O)N/N=C/c3c(Cl)c4ccccc4oc3=O)nn2-c2ccc(S(N)(=O)=O)cc2)cc1
8.1 | COc1ccc(-c2cc(C(=O)N/N=C/c3c(Cl)c4ccccc4oc3=O)nn2-c2ccc(S(N)(=O)=O)cc2)cc1
10 | Cc1cccc(-c2cc(C(=O)N/N=C/c3c(Cl)c4ccccc4oc3=O)nn2-c2ccc(S(N)(=O)=O)cc2)c1
314 | NS(=O)(=O)c1ccc(-n2nc(C(=O)N/N=C/c3c(Cl)c4ccccc4oc3=O)cc2-c2ccc(F)cc2)cc1
> 22 | NS(=O)(=O)c1ccc(-n2nc(C(=O)N/N=C/c3c(Cl)c4ccccc4oc3=O)cc2-c2ccccc2)cc1
